This is a sample that favours compounds with a hit; in the whole collection about 1.8% have one here.
RAD52 inh – inhibitors of human RAD52 DNA annealing. 360,000 tested, 0.46% active. AID 651710. P43351. recombinant RAD52 DNA annealing, FRET fluorescence. inhibition, % at 18.7 µM;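 active means every replicate showing at least 50% inhibition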
MLL AF4-AF9 inh – blocks AF4 peptide binding to human AF9. 350,000 tested, 0.47% active. P42568. inhibition, % at 10 µM. AlphaScreen, biotin-AF4 peptide binding to FLAG-AF9. AID 651704;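 active means every replicate reaching a set inhibition limit, whatever the replicate mean, cut at about 25% in these data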
RAD54 branch – blocks human RAD54 Holliday junction branch migration. FAM/BHQ fluorescence. inhibition, % at 10.4 µM. 360,000 tested, 0.14% active;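 active means mean normalized replicate activity at least 40 and at least half of replicates scoring 40 or more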;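 further: inhibitors cause a drop in the FAM fluorescence signal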
E-sel inducer – E-selectin induction on HUVECs. HUVEC E-selectin immunofluorescence imaging; normalized: neutral wells 0, TNF-alpha wells 100. activation, % at 7.58 µM. P16581. AID 686992. 260,000 tested, 0.37% active;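 active means mean E-selectin-positive cell signal at least 10% of the positive control, reached in at least 60% of replicates, without over 20% cell loss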
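assay system = HUVEC, human umbilical vein endothelial cells | input = 3,000 HUVEC seeded per well | medium = EGM-2 growth medium on 0.1% gelatin-coated wells | dosing = one compound dose added by pin transfer | signal = immunofluorescence imaging | read-out basis = % PE-positive cells | control set = TNF-alpha, DMSO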
SIRT5 block – blocks human SIRT5 desuccinylation of peptide | Purified SirT5, succinyl-peptide AMC, trypsin-coupled fluorescence | inhibition, % at 15 µM | 330,000 tested, 1.1% active | Q9NXA8; in the data active means inhibition above about 15%
Yeast UUG start – alters start codon recognition fidelity in yeast; S. cerevisiae UUG-firefly luciferase reporter, luminescence/redox ratio; activity score, % at 18.7 µM; actives 0.13% (n = 350,000); AID 602363;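 active = replicate mean at a twofold rise or more, about +100% in these data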;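 also: firefly luciferase made from a UUG start codon reports start codon fidelity; reporter light over untreated wells divided by growth signal over untreated wells; some hits fall short of that in this replicate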
Numbers stand for hits; - = inactive; . = no result given.

SMILES	RAD52 inh	MLL AF4-AF9 inh	RAD54 branch	E-sel inducer	SIRT5 block	Yeast UUG start
C[C@@H]1CN([C@H](C)CO)S(=O)(=O)c2ccc(C#Cc3ccc(F)cc3)cc2O[C@@H]1CN(C)C(=O)NC1CCCCC1	-	-	-	-	19	-
C[C@H](CO)N1C[C@H](C)[C@@H](CN(C)C(=O)NC2CCCCC2)Oc2cc(C#Cc3ccc(F)cc3)ccc2S1(=O)=O	-	-	-	-	18	-
C[C@H](CO)N1C[C@H](C)[C@@H](CN(C)C(=O)NC2CCCC2)Oc2cc(C#Cc3ccc(F)cc3)ccc2S1(=O)=O	-	-	-	-	-	-
Cc1nc(S(=O)(=O)N2CCN(Cc3cccc(OCCO)c3)CC2)cn1C	-	-	-	.	-	-
Cc1cc(N2CCN(c3ncccn3)CC2)nc2c(C)cccc12	-	41	-	-	-	-
CO[C@@H]1CN(C)C(=O)c2cc(NC(=O)NC(C)C)ccc2OC[C@@H](C)N(Cc2ccc(-c3ccccn3)cc2)C[C@H]1C	-	-	-	-	-	-
Cc1oc(-c2cccc(Cl)c2)nc1CN(C)C1CCOC1 (stereo not given)	-	-	.	.	-	.
Cc1oc(-c2ccc(-c3ccccc3)cc2)nc1CN(C)C1CCOC1 (stereo not given)	-	-	-	-	18	-
C[C@@H]1CN([C@@H](C)CO)C(=O)c2cc(NS(C)(=O)=O)ccc2O[C@@H](C)CCCCO[C@@H]1CN(C)C	-	-	-	-	25	-
Cc1ccc(S(=O)(=O)Nc2ccc3c(c2)C(=O)N([C@H](C)CO)C[C@H](C)[C@@H](CN(C)CC2CCCCC2)OCCCC[C@@H](C)O3)cc1	-	-	-	-	-	-
Cc1ccc(S(=O)(=O)Nc2ccc3c(c2)C(=O)N([C@H](C)CO)C[C@H](C)[C@H](CN(C)CC2CCCCC2)OCCCC[C@@H](C)O3)cc1	55	-	-	-	-	-
Cc1ccc(S(=O)(=O)Nc2ccc3c(c2)C(=O)N([C@@H](C)CO)C[C@@H](C)[C@@H](CN(C)CC2CCCCC2)OCCCC[C@@H](C)O3)cc1	56	-	-	-	-	-
C[C@@H]1CN([C@H](C)CO)C(=O)c2cc(NS(=O)(=O)c3ccc(F)cc3)ccc2O[C@@H](C)CCCCO[C@@H]1CN(C)CC1CCCCC1	-	-	-	-	19	-
COc1ccc(-c2cnc3c(c2)C(=O)N([C@@H](C)CO)C[C@H](C)[C@H](CN(C)C(=O)C2CCCCC2)O3)cc1	-	-	-	-	-	.
CN(C)C(=O)c1ccc(-c2ccc([C@H]3[C@@H](C#N)N(C(=O)C4CCC4)[C@@H]3CO)cc2)cc1	-	-	-	-	-	-
O=C(O)c1ccc(CSc2nc3ccc(NC(=O)c4ccccc4C(=O)O)cc3s2)cc1	-	-	-	.	17	-
N#Cc1ccccc1CSc1nc2ccc(NC(=O)c3ccccc3C(=O)O)cc2s1	-	-	.	.	-	.
COc1ccccc1N1CCN(Cc2cn[nH]c2-c2ccc(F)cc2)CC1	-	53	-	.	-	-
COc1ccccc1N1CCN(Cc2nc(-c3ccc(F)cc3)oc2C)CC1	-	-	.	.	-	.
C[C@@H]1CN([C@H](C)CO)C(=O)c2cc(NS(=O)(=O)c3ccc(F)cc3)ccc2O[C@@H](C)CCCCO[C@H]1CN(C)S(=O)(=O)c1ccc(Cl)cc1	-	-	-	.	-	-
C[C@@H]1CCCCO[C@H](CN(C)S(=O)(=O)c2ccc(Cl)cc2)[C@H](C)CN([C@@H](C)CO)C(=O)c2cc(NS(=O)(=O)c3ccc(F)cc3)ccc2O1	-	-	-	.	22	-
C[C@@H]1CCCCO[C@H](CN(C)S(=O)(=O)c2ccc(F)cc2)[C@@H](C)CN([C@@H](C)CO)C(=O)c2cc(NS(=O)(=O)c3ccc(Cl)cc3)ccc2O1	-	-	-	-	17	-
C[C@H](CO)N1C[C@H](C)[C@@H](CN(C)S(=O)(=O)c2ccc(Cl)cc2)OCCCC[C@H](C)Oc2ccc(NS(=O)(=O)c3ccc(F)cc3)cc2C1=O	-	-	-	.	-	-
C[C@H]1CCCCO[C@@H](CN(C)S(=O)(=O)c2ccc(Cl)cc2)[C@@H](C)CN([C@@H](C)CO)C(=O)c2cc(NS(=O)(=O)c3ccc(F)cc3)ccc2O1	-	-	-	.	-	-
C[C@@H]1CCCCO[C@H](CN(C)S(=O)(=O)c2ccc(Cl)cc2)[C@H](C)CN([C@H](C)CO)C(=O)c2cc(NS(=O)(=O)c3ccc(F)cc3)ccc2O1	-	-	-	.	20	-
SMILES	RAD52 inh	MLL AF4-AF9 inh	RAD54 branch	E-sel inducer	SIRT5 block	Yeast UUG start
CCNC(=O)C[C@H]1CC[C@H]2[C@H](COc3ccc(NC(=O)Cc4cccs4)cc3C(=O)N2C)O1	-	-	-	-	-	-
CO[C@@H]1CN(C)C(=O)c2cc(NC(=O)Nc3cc(Cl)cc(Cl)c3)ccc2OC[C@@H](C)NC[C@@H]1C	.	.	.	-	.	.
CO[C@H]1CN(C)C(=O)c2cc(NC(=O)Nc3cc(Cl)cc(Cl)c3)ccc2OC[C@@H](C)NC[C@@H]1C	59	.	.	.	-	.
CO[C@H]1CN(C)C(=O)c2cc(NC(=O)Nc3cc(Cl)cc(Cl)c3)ccc2OC[C@@H](C)NC[C@H]1C	.	.	.	-	103	.
Nn1c(C2CCC2)nc2cc(Cl)ccc2c1=O	-	-	-	.	18	-
Nn1c(C2CCCCC2)nc2ccccc2c1=O	-	-	-	-	-	-
CCOC(=O)C1=C(C)N=c2sc(=Cc3ccc(OCC(=O)O)cc3)c(=O)n2C1c1ccc(Cl)cc1 (stereo not given)	-	-	-	-	21	-
CCC(=O)N1CC2(C1)CN(C(=O)Nc1ccc(F)cc1)[C@H](CO)c1c2c2ccc(OC)cc2n1C	.	-	.	-	.	.
COC(=O)c1ccc2nc(-c3ccc(C)cc3)c(CC(C)(C)C)n2c1	-	-	.	-	15	.
CNC(=O)C[C@@H]1CC[C@H]2[C@@H](COc3ccc(NC(=O)Cc4cccs4)cc3C(=O)N2C)O1	.	.	-	-	.	-
CCCNC(=O)C[C@H]1CC[C@H]2[C@H](COc3ccc(NC(=O)c4cc(C)on4)cc3C(=O)N2C)O1	-	-	-	-	-	-
CCOc1cccc(CN2CCC(N3CCC(C(=O)NCC4CCCO4)CC3)CC2)c1 (stereo not given)	-	-	-	.	21	-
CCCNC(=O)N1C[C@H](O)COC[C@H]2O[C@H](CC(=O)NCc3ccc(Cl)c(Cl)c3)CC[C@@H]21	-	-	-	-	-	-
CC/C(=C\c1ccc(N(C)C)cc1)c1ccncc1	-	28	.	-	-	.
Nc1ccc2c(O)cc(S(=O)(=O)O)cc2c1	-	-	73	-	.	-
Cc1cc(C)c2c(c1)/C(=N/Nc1ccc(S(N)(=O)=O)cc1[N+](=O)[O-])CCC2	-	-	.	-	-	.
NS(=O)(=O)c1ccc(N/N=C2/CCCCC2C2CCCCC2)c([N+](=O)[O-])c1 (stereo not given)	-	30	.	.	.	.

Source: PubChem BioAssay (Broad Institute)
